Hits are enriched below; roughly 2.1% of the tested compounds scored in any of these assays.
ERp5 block: ERp5 (human) disulfide isomerase inhibition | 350,000 compounds, 0.05% hits | Q15084 | ERp5 insulin aggregation, absorbance 650 nm, 90 min | inhibition, % at 9.99 µM;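 active = mean replicate inhibition above about 25%, with every replicate also reaching it, limit read from the data, passing the limit was not always enough; inconclusive = only one of those two criteria met; inactive = neither criterion met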
SMARCA2 activ: SMARCA2 function activation, primary screen | AID 652017 | MG213 cells, MMTV-luciferase reporter, dexamethasone, overnight | activation, % at 9.1 µM | 370,000 compounds, 1% hits; in the data active = activation above about 7.8%;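 also: 0% = vehicle wells and 100% = reference activator wells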
Rev-erbA mod: modulators of human Rev-erb alpha DNA binding. activity, % at 10 µM. 370,000 compounds, 0.79% hits. AID 1259318. Rev-erbα–FITC-DNA binding, fluorescence polarization, 90 min. P20393;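 active = activity above about 14%, limit read from the data; passing the limit was not always enough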;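 also: 0% = DMSO wells with 35 nM protein and 100% = DMSO wells with 750 nM protein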
PDI inh: blocks human protein disulfide isomerase activity; 350,000 compounds, 0.052% hits; P07237; inhibition, % at 10 µM; AID 588391; PDI insulin aggregation turbidity, A650, 90 min;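 active = mean inhibition across replicates of 30% or more, whatever share of single replicates reach that level; inconclusive = mean inhibition below 30% while every single replicate reaches 30%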
GSIS activator: primary screen for activators of insulin secretion dependent on glucose, INS-1E cells, GLuc reporter luminescence. 370,000 compounds, 0.61% hits. activation, % at 16.6 µM. INS-1E GLuc reporter insulin secretion, 2-3 h;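 active = lowest replicate activation of at least 40%, so every replicate reaches that level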;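 also: 0% = median of neutral control wells and 100% = median of IBMX positive control wells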
Yeast UUG start-1: modulators of start codon recognition fidelity in yeast; S. cerevisiae UUG-firefly luciferase reporter, luminescence/redox ratio; activity score, % at 18.7 µM; hit rate 0.13% among 350,000; AID 602363;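 active = replicate mean at a twofold rise or more, about +100% in these data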;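 note: firefly luciferase made from a UUG start codon reports start codon fidelity; reporter light over untreated wells divided by growth signal over untreated wells; some hits fall short of that in this replicate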
Yeast UUG start-2: yeast start codon fidelity modulation; shares compounds with Yeast UUG start-1; S. cerevisiae UUG-start firefly luciferase, luminescence, 4 h; 100% means double the DMSO signal; activation, % at 38 µM; 540 tested, under 10 active; AID 652061;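 active = signal increase whose fitted curve reaches an absolute level of 40 at a concentration under 10 µM; inactive = activity opposite to the expected increase, or the rest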
SMARCA2 act conf: SMARCA2 activation, confirmation screen. activation, % at 9.1 µM. 3,500 compounds, 30% hits. MG213 cells, MMTV-luciferase with dexamethasone, luminescence, overnight; MG213 cells expressing E1A, Rb sequestered; DMSO wells 0%, reference activator 100%. shares compounds with SMARCA2 activ;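 active = activation above its plate's cutoff, the mean activation of tested wells plus 3 SD, cut at about 7.9% in these data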
VP16 Luc act: activates GAL4-VP16 luciferase, flagging SMARCA2 activator hits; activation, % at 9.1 µM; 3,500 compounds, 41% hits; AID 686939; HEK293 GAL4-VP16 pG5luc reporter, luciferase luminescence; scaled: DMSO wells 0%, SAHA wells 100%; shares compounds with SMARCA2 activ;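 active = activation above the solvent-only control well mean plus 3 SD, averaged across control plates, cut at about 5.2% in these data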
An asterisk follows results filed as active; ? = inconclusive; nt = no result given.

SMILES	ERp5 block	SMARCA2 activ	Rev-erbA mod	PDI inh	GSIS activator	Yeast UUG start-1	SMARCA2 act conf	VP16 Luc act	others
O=C(O)CC1OCC=C2CN3CCC45C6=CC(=O)C(=O)C([N+](=O)[O-])=C6NC4C1C2CC35 (stereo not given)	nt	nt	nt	75*	nt	-14	nt	nt
CC1=C2CCC3C(CC[C@]4(C)C(=O)CCC34)[C@@]2(C)CCC1=O (stereo not given in full)	nt	nt	4	nt	nt	nt	nt	nt
NS(=O)(=O)c1ccc(N=Cc2c(O)n(C3CCCCC3)c(=O)n(C3CCCCC3)c2=O)cc1	nt	-1	5	-9	739*	-7	nt	nt
CCn1c(O)c(C=Nc2ccc(S(N)(=O)=O)cc2)c(=O)n(CC)c1=S	-1	-6	-3	1	nt	nt	nt	nt
O=C(Cc1ccccc1)N1CC2(C1)[C@@H](c1ccccc1)[C@H](CO)N2Cc1cccc(F)c1	nt	nt	nt	nt	-16	nt	nt	nt
O=P(NC(c1ccccc1)c1ccccc1)(Oc1ccccc1)Oc1ccccc1	nt	0	5	-4	40*	-12	nt	nt
C=C(C)Cn1c(=O)n(CC2CS2)c2ccccc21 (stereo not given)	nt	-1	2	-5	69*	nt	nt	nt
CC(=O)c1cccc(OCC(O)CN2CC=C(c3ccccc3)CC2)c1 (stereo not given)	nt	-2	-2	1	nt	10	nt	nt
Cc1cccc(OCC(O)CN2CC2)c1 (stereo not given)	3	3	6	5	14	143*	nt	nt	Yeast UUG start-2=6
O=C(N/N=C/c1c(O)n(-c2ccccc2)c(=S)[nH]c1=O)c1ccccc1	-1	5	-1	-8	-7	182*	nt	nt	Yeast UUG start-2=15
CS(=O)(=O)N1C[C@@H]2C(c3ccc(Br)cc3)[C@H](C1)N2CC1CC1 (stereo not given in full)	nt	nt	nt	nt	3	nt	nt	nt
CC(C)NC(=O)N1C[C@@H]2C(c3ccc(Br)cc3)[C@H](C1)N2CC1CC1 (stereo not given in full)	nt	nt	nt	nt	-8	nt	nt	nt
COc1ccccc1CN1CCCC(C(=O)c2ccccc2OC)C1 (stereo not given)	3	-1	-1	-1	22	active	nt	nt	Yeast UUG start-2=11
S=P1(Oc2ccccc2)Nc2ccccc2N1	3	12*	-2	-6	nt	-4	5	3
C[C@H](CO)N1C[C@H](C)[C@@H](CN(C)C(=O)Oc2ccccc2)OCc2ccccc2-c2c(n(C)c3ccccc23)C1=O	nt	nt	nt	nt	-33	nt	nt	nt
COC(=O)C1=C(C(=O)OC)SC2(S1)C(C(=O)OC)=C(C(=O)OC)Sc1c2ssc1=O	12	62*	11	3	nt	nt	-10	8.4*
CC(=O)N1C[C@@H]2C(c3ccc(Br)cc3)[C@H](C1)N2CC1CC1 (stereo not given in full)	nt	nt	nt	nt	9	nt	nt	nt
CC(Cc1ccccc1)/[N+]([O-])=C\c1ccc(C(F)(F)F)cc1 (stereo not given)	4	9.2*	-1	14	nt	-1	11*	6.3*
CNC(C)Cc1ccccc1 (stereo not given)	1	2	3	-5	22	-22	nt	nt
CN1C2CN(CC(F)(F)F)CC1C2c1ccc(Br)cc1 (stereo not given)	nt	nt	nt	nt	7	nt	nt	nt
Cc1c(OC(=O)N(C)C)ccc2c1O/C(=C\c1ccco1)C2=O	1	8.2*	4	-4	16	-31	4	5.9*
CN(C)C(=O)Oc1ccc(Cl)c2ccccc12	nt	-4	6	5	22	-50	nt	nt
CN1CCN(c2ccc([N+](=O)[O-])c3no[n+]([O-])c23)CC1	1	-8	9	2	-66	18	nt	nt
O=[N+]([O-])c1ccc(N(CCO)CCO)c2c1no[n+]2[O-]	-2	15*	5	-2	nt	61	13*	1
CS(=O)(=O)c1ccc(C2=C(CNC(=O)c3cccnc3)[C@H]3CC[C@@H](C2)N3Cc2ccccc2)cc1	-1	13*	-1	0	10	6	-3	0

Some of these compounds in order of formula weight, lowest first.
SMILES	ERp5 block	SMARCA2 activ	Rev-erbA mod	PDI inh	GSIS activator	Yeast UUG start-1	SMARCA2 act conf	VP16 Luc act	others
Cc1c(OC(=O)N(C)C)ccc2c1O/C(=C\c1ccco1)C2=O	1	8.2*	4	-4	16	-31	4	5.9*
CC(=O)c1cccc(OCC(O)CN2CC=C(c3ccccc3)CC2)c1 (stereo not given)	nt	-2	-2	1	nt	10	nt	nt
O=C(N/N=C/c1c(O)n(-c2ccccc2)c(=S)[nH]c1=O)c1ccccc1	-1	5	-1	-8	-7	182*	nt	nt	Yeast UUG start-2=15

(list continues)
SMILES	ERp5 block	SMARCA2 activ	Rev-erbA mod	PDI inh	GSIS activator	Yeast UUG start-1	SMARCA2 act conf	VP16 Luc act	others
O=C(CNCc1c(F)cccc1F)N1CCC2(CC1)OCCO2	nt	8.6*	-3	nt	nt	nt	16*	3
O=C(Nc1ccc(Cl)c(Cl)c1)c1ccco1	5	8.2*	3	2	-9	-18	3	9.2*
C=CCNC(=S)Nc1ccc(OC(=O)Nc2ccc(Cl)c(Cl)c2)cc1	5	-1	1	5	-49	1	nt	nt
C=CCN1[C@@H]2CN(C(=O)NC(C)C)C[C@H]1C2c1ccccc1 (stereo not given in full)	nt	nt	nt	nt	11	nt	nt	nt
Nc1c(C(=O)NCc2ccco2)c2nc3ccccc3nc2n1CCN1CCCCC1	nt	8.8*	-21	0	-8	6	4	-1
C=C1[C@@H](C)C2[C@H](Cc3ccccc3)NC(=O)[C@]23[C@H](OC(C)=O)/C=C/[C@@](C)(O)C(=O)[C@@H](C)C/C=C/[C@H]3[C@@H]1O (stereo not given in full)	nt	6	-6	nt	nt	nt	nt	nt
C=C1C(C)C2C(Cc3ccccc3)NC(=O)C23C(OC(C)=O)C=CC(C)(O)CC(C)CC=CC3C1O (stereo not given)	-10	14*	-1	-2	3	nt	14*	5
C=CCN1[C@@H]2CN(C(C)=O)C[C@H]1C2c1ccccc1 (stereo not given in full)	nt	nt	nt	nt	-4	nt	nt	nt
N#Cc1cn(C2OC(CO)C(O)C2O)c2ncnc(N)c12 (stereo not given)	7	8.5*	-5	-3	5	nt	17*	-4
N#Cc1c(Br)n(C2OC(CO)C(O)C2O)c2ncnc(N)c12 (stereo not given)	-5	63*	1	4	-4	nt	52*	-1
CC(=O)N1C2CN(C)CC1C2c1ccc(Br)cc1 (stereo not given)	nt	nt	nt	nt	-4	nt	nt	nt
CC(C)NC(=O)N1C[C@@H]2C(c3ccccc3)[C@H](C1)N2CC1CC1 (stereo not given in full)	nt	nt	nt	nt	11	nt	nt	nt
CN1CCN(c2ccc3c(c2)S(=O)(=O)c2ccccc2C3=O)CC1	-3	8.6*	0	-9	12	-20	8.2*	8.8*
Cc1cc(NC(=O)CCl)no1	?	8.9*	2	5	10	nt	1	0
CCCN1[C@@H]2c3ccc(-c4ccc(F)cc4)c(=O)n3C[C@H]1[C@H](CO)[C@H]2C(=O)OC	-4	nt	nt	nt	5	nt	nt	nt

Among those listed so far, these contain a nitro group on carbon.
SMILES	ERp5 block	SMARCA2 activ	Rev-erbA mod	PDI inh	GSIS activator	Yeast UUG start-1	SMARCA2 act conf	VP16 Luc act	others
O=C(O)CC1OCC=C2CN3CCC45C6=CC(=O)C(=O)C([N+](=O)[O-])=C6NC4C1C2CC35 (stereo not given)	nt	nt	nt	75*	nt	-14	nt	nt
CN1CCN(c2ccc([N+](=O)[O-])c3no[n+]([O-])c23)CC1	1	-8	9	2	-66	18	nt	nt
O=[N+]([O-])c1ccc(N(CCO)CCO)c2c1no[n+]2[O-]	-2	15*	5	-2	nt	61	13*	1

Compound activity (PubChem)
